How the values were obtained:
[1] = Nu/Nu, mouse, in vivo, ip, 41 umol/kg
in vivo [2] = settings: Nu/Nu, mouse, ip, 41 umol/kg
in vivo [3] = settings: Nu/Nu, mouse, iv
physchem = settings: buffer, pH 7.4
in vitro [4] = settings: human, plasma
in vitro [5] = settings: mouse, plasma

Q: With `O=C(O)CC[C@H](NC(=O)c1ccc(N(CCCl)CCCl)cc1)C(=O)O` [prodrug, 4-(bis (2-chloroethyl)amino) benzoyl-L-glutamic acid] as the compound, how does the “t1/2 beta, final half life” value [1] read?
A: Its value is 45 min.

Q: What about the half-life (in vivo [2]; t1/2 alpha, initial half life) of the same compound?
A: The half-life was 7.2 min.

Q: What about the half-life (in vivo [2]; t1/2 beta, final half life) of the same compound?
A: Its half-life is 42 min.

Q: What about the Vd (in vivo [3]) of the same compound?
A: The Vd was 0.16 L.

Q: And the clearance (in vivo [3])?
A: Its clearance is 0.62 mL/min.

Q: And the half-life (in vivo [3]; t1/2 alpha, initial half life)?
A: The half-life was 22.2 min.

Q: What about the half-life (in vivo [3]; t1/2 beta, final half life) of the same compound?
A: The half-life was 177 min.

Q: What about the half-life (physchem) of the same compound?
A: The half-life was 1560 min.

Q: What about the fraction unbound (in vitro [4]) of the same compound?
A: Its fraction unbound is 0.08.

Q: What about the fraction unbound (in vitro [5]) of the same compound?
A: The fraction unbound was 0.06.
